Results as given in PubChem BioAssay AID1274 (Emory University Molecular Libraries Screening Center, 2008).
This is a selection; strong and weak results do not stand in their true shares. Some salts and complexes are drawn in separate pieces, as the source files them; their charges need not balance. Calls of active or inactive are those of the source.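 The calls were made as follows: active = inhibition above about 30% (limit read from the data); inactive = the rest.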

Sequences of proteins named here, by UniProt entry; tags and fusion partners are left off.
UniProt P14598, whole entry: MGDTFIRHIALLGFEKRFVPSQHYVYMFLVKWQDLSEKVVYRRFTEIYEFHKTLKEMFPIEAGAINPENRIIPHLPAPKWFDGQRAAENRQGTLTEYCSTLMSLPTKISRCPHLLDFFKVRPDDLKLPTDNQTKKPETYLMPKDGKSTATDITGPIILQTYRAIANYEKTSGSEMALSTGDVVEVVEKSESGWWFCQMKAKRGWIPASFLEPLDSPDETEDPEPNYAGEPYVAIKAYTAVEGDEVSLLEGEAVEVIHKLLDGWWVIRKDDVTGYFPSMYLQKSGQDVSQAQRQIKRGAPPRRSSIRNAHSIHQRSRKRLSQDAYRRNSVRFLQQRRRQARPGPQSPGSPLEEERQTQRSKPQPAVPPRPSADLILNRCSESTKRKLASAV

molecular target: Neutrophil cytosol factor 1 (Homo sapiens) (UniProt P14598); experiment: blockers of p47phox binding to p22phox – biochemical, uHTS, NADPH oxidase regulatory subunit, primary screen (AID 1274); conditions: p47phox/p22phox peptide binding, fluorescence polarization, 2 h; at 24.7 µM; active compounds read high;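 also: 0% = p47phox with labelled peptide and 100% = labelled peptide alone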

| SMILES | inhibition |
| --- | --- |
| COc1ccccc1OP(C)(=O)Nc1ccc(Br)cc1 (stereo not drawn) | inactive: 3.82% |
| COc1ccc(OP(C)(=O)Nc2ccccn2)cc1 (stereo not drawn) | inactive: 6.3% |
| CN(C)CCOC(=O)C(O)(c1ccccc1)C1CCCC1 (stereo not drawn) | inactive: 2.43% |
| O=[N+]([O-])c1cc([N+](=O)[O-])c(Nc2ccccn2)c([N+](=O)[O-])c1 | inactive: 2.36% |
| Cc1c(NP(C)(=O)Oc2ccc(C(C)C)cc2)c(=O)n(-c2ccccc2)n1C (stereo not drawn) | inactive: -5.33% |
| COc1ccccc1OP(C)(=O)Nc1ccc(C)cc1C (stereo not drawn) | inactive: -4.72% |
| CP(=O)(Nc1ccccn1)Oc1ccccc1 (stereo not drawn) | inactive: -6.46% |
| CCc1ccc(OP(C)(=O)O)cc1 | inactive: -3.19% |
| Cc1cc(C)cc(OP(C)(=O)Nc2cccc(C(F)(F)F)c2)c1 (stereo not drawn) | inactive: -4.8% |
| COc1ccccc1OP(C)(=O)Nc1ccc(C)c(C)c1 (stereo not drawn) | inactive: 2.09% |
| COc1ccc(OP(C)(=O)Nc2ccccc2Br)cc1 (stereo not drawn) | inactive: -12.2% |
| Cc1nc2ccc3ccccc3c2o1.O=[N+]([O-])c1cc([N+](=O)[O-])c(O)c([N+](=O)[O-])c1 | inactive: -1.61% |
| CP(=O)(OCCOc1ccccc1)OCCOc1ccccc1 | inactive: -4.5% |
| CP(=O)(Nc1ccc(Cl)cc1Cl)Oc1ccccc1 (stereo not drawn) | inactive: -16.2% |
| CCOC(=O)c1ccc(NP(C)(=O)Oc2ccc(Cl)cc2)cc1 (stereo not drawn) | inactive: -5.93% |
| CP(=O)(OC12CC3CC(CC(C3)C1)C2)OC12CC3CC(CC(C3)C1)C2 | inactive: -4.59% |
| COc1ccc(OP(C)(=O)Nc2ccc(Br)cc2)cc1 (stereo not drawn) | inactive: -9.25% |
| CCN(CC)CC(O)COC(=O)C(O)(c1ccccc1)C1CCCCC1 (stereo not drawn) | inactive: 10.2% |
| O=C(OCCCN1CCCC1)C(O)(c1ccccc1)C1CCCCC1 (stereo not drawn) | inactive: 1.25% |
| CCc1ccc(OP(C)(=O)Nc2cccnc2)cc1 (stereo not drawn) | inactive: -1.65% |
| CP(=O)(Oc1ccccc1)N1CCOC1=O (stereo not drawn) | inactive: -1.68% |

| SMILES | inhibition |
| --- | --- |
| CC(C)(C)c1ccc(OP(C)(=O)O)cc1 | inactive: 3.71% |
| COc1ccccc1OP(C)(=O)Nc1ccccc1Br (stereo not drawn) | inactive: 5.32% |
| CP(=O)(Nc1ccc(Cl)cc1)Oc1ccc(F)cc1 (stereo not drawn) | inactive: -13.9% |
| CN(C)C(=O)c1c([N+](=O)[O-])cc([N+](=O)[O-])cc1[N+](=O)[O-] | inactive: -12.4% |
| CP(=O)(Nc1ccc(SC(F)(F)F)cc1)Oc1ccc(F)cc1 (stereo not drawn) | inactive: -1.57% |
| CCOP(C)(=S)SCC(=O)NC(C)(CC)C(=O)O (stereo not drawn) | inactive: 8.03% |
| CP(=O)(Nc1ccc2c(c1)OCCO2)Oc1ccccc1 (stereo not drawn) | inactive: -3.57% |
| Cc1ccccc1NP(C)(=O)Nc1ccccc1C | inactive: -8.23% |
| COc1ccc(OP(C)(=O)Nc2cccc(Br)c2)cc1 (stereo not drawn) | inactive: -9.58% |
| CN(C)CCOC(=O)C(O)(c1ccccc1)C1CCCCC1 (stereo not drawn) | inactive: -16.6% |
| COc1ccc(NP(C)(=O)Oc2ccccc2OC)cc1 (stereo not drawn) | inactive: 4.67% |
| O=[N+]([O-])c1ccc(OP2(=O)COCCO2)cc1 (stereo not drawn) | inactive: 0.13% |
| O=[N+]([O-])c1cc([N+](=O)[O-])c(NCC2CCS(=O)(=O)C2)c([N+](=O)[O-])c1 (stereo not drawn) | inactive: -7.17% |
| Cc1cc(-c2cccc3ccccc23)c(C)cn1.O=[N+]([O-])c1cc([N+](=O)[O-])c(O)c([N+](=O)[O-])c1 | inactive: -7.02% |
| CCOC(=O)c1ccc(NP(C)(=O)Oc2ccc(F)cc2)cc1 (stereo not drawn) | inactive: 10.6% |
| COc1ccc(OP(C)(=O)Nc2ccc(SC(F)(F)F)cc2)cc1 (stereo not drawn) | inactive: -5.77% |
| CCN(CC)CCCOC(=O)C(O)(c1ccccc1)C1CCCCC1 (stereo not drawn) | inactive: 4.8% |
| CP(=O)(Nc1ccccc1)Oc1ccc(F)cc1 (stereo not drawn) | inactive: -9.4% |
| CCCCCOc1ccc(NP(C)(=O)Oc2ccc(Cl)cc2Cl)cc1 (stereo not drawn) | inactive: -4.59% |
| CP(=O)(Nc1ccccc1F)Oc1ccccc1 (stereo not drawn) | inactive: -9.87% |
| CC(C)c1ccc(OP(C)(=O)Nc2ccc(SC(F)(F)F)cc2)cc1 (stereo not drawn) | inactive: -5.2% |

| SMILES | inhibition |
| --- | --- |
| O=C(OC1CN2CCC1CC2)c1ccc([N+](=O)[O-])cc1 (stereo not drawn) | inactive: 22.6% |
| O=C(OCCN1CCN(CCOCc2ccccc2)CC1)C(O)(c1ccccc1)c1ccccc1 | inactive: -8.52% |
| COc1ccc2c(c1O)-c1c(O)c(OC)cc3c1[C@H](C2)[N+](C)(C)CC3.O=[N+]([O-])c1cc([N+](=O)[O-])c([O-])c([N+](=O)[O-])c1[O-] | inactive: 9.83% |
| COc1ccccc1OP(C)(=O)Nc1cccc(Br)c1 (stereo not drawn) | inactive: 2.21% |
| CCOC(=O)c1ccc(NP(C)(=O)Oc2cc(C)cc(C)c2)cc1 (stereo not drawn) | inactive: -1.33% |
| Cc1cc(C)cc(OP(C)(=O)Nc2ccc(C)cc2C)c1 (stereo not drawn) | inactive: -3.13% |
| Cc1ccc(C)c(NP(C)(=O)Oc2ccccc2)c1 (stereo not drawn) | inactive: -9.31% |
| CP(=O)(Nc1cccc(Br)c1)Oc1ccccc1 (stereo not drawn) | inactive: 4.52% |
| Cc1cc(C)cc(OP(C)(=O)Nc2ccccn2)c1 (stereo not drawn) | inactive: -3.24% |
| O=C(O)c1cccc(Nc2c([N+](=O)[O-])cc([N+](=O)[O-])cc2[N+](=O)[O-])c1 | inactive: -14.4% |
| CC1=NCCc2c1[nH]c1ccccc21.O=[N+]([O-])c1cc([N+](=O)[O-])c(O)c([N+](=O)[O-])c1 | inactive: -2.54% |
| CCOC(=O)C(CC)C1=NC(C)(C)Cc2ccccc21.O=[N+]([O-])c1cc([N+](=O)[O-])c(O)c([N+](=O)[O-])c1 (stereo not drawn) | inactive: -15.3% |
| O=[N+]([O-])c1cc([N+](=O)[O-])c(Nc2nnnn2CCO)c([N+](=O)[O-])c1 | inactive: -3.45% |
| COc1ccccc1OP(C)(=O)Nc1c(C)cccc1C (stereo not drawn) | inactive: -5.11% |
| CN1CCCCC1COC(=O)C1(O)c2ccccc2CCc2ccccc21 (stereo not drawn) | inactive: 10.4% |
| CP(=O)(Nc1ccc(SC(F)(F)F)cc1)Oc1ccccc1 (stereo not drawn) | inactive: -0.6% |
| CCCOc1ccc(NP(C)(=O)Oc2ccc(Cl)cc2)cc1 (stereo not drawn) | inactive: -0.09% |
| O=[N+]([O-])c1cc([N+](=O)[O-])c(-n2nnc3ccccc32)c([N+](=O)[O-])c1 | inactive: 1.59% |
| Cc1nc2ccc3ccccc3c2s1.O=[N+]([O-])c1cc([N+](=O)[O-])c(O)c([N+](=O)[O-])c1 | inactive: 0.55% |
| CP(=O)(Oc1ccccc1)OC(c1ccccc1)C(F)(F)F (stereo not drawn) | inactive: -9.85% |
| Cc1cccc(C)c1OP(C)(=O)Nc1ccc(SC(F)(F)F)cc1 (stereo not drawn) | inactive: -11.3% |

| SMILES | inhibition |
| --- | --- |
| CP(=O)(Nc1ccc(SC(F)(F)F)cc1)Oc1ccc(Cl)cc1 (stereo not drawn) | inactive: -3.72% |
| Cc1cc(C)cc(OP(C)(=O)Nc2ccc(SC(F)(F)F)cc2)c1 (stereo not drawn) | inactive: 10.3% |
| CCc1ccc(OP(C)(=O)N2CCN(c3ccc([N+](=O)[O-])cc3)CC2)cc1 (stereo not drawn) | inactive: 0.89% |
| CP(=O)(NC(=O)Nc1ccccc1)Oc1ccccc1 (stereo not drawn) | inactive: -3.56% |
| CCOC(=O)c1ccc(NP(C)(=O)Oc2ccc(OC)cc2)cc1 (stereo not drawn) | inactive: -0.63% |
| CCOP(C)(=S)SCC(=O)NC(C)C(=O)O (stereo not drawn) | inactive: -15.2% |
| CP(=O)(Nc1ccccn1)Oc1ccc(Cl)cc1 (stereo not drawn) | inactive: -2.69% |
| CP(=S)(Nn1cnnc1)Oc1ccccc1 (stereo not drawn) | inactive: -1.74% |
| CP(=O)(Nc1ccccc1Br)Oc1ccccc1 (stereo not drawn) | inactive: -21.4% |
| COc1ccccc1OP(C)(=O)Nc1ccccc1 (stereo not drawn) | inactive: 0.8% |
| O=[N+]([O-])c1ccc2c(c1)C=Nc1ccccc1O2 | inactive: -13.4% |
| Cc1cccc(C)c1OP(C)(N)=O (stereo not drawn) | inactive: -1.3% |
| CC(C)(C)c1ccc(OP(C)(=O)Nc2ccc(SC(F)(F)F)cc2)cc1 (stereo not drawn) | inactive: -11.1% |
| Cc1ccc(NP(C)(=O)Oc2ccccc2)c(C)c1 (stereo not drawn) | inactive: 4.03% |
| COc1ccccc1OP(C)(=O)Nc1ccc(C)cc1 (stereo not drawn) | inactive: -0.13% |
| CCOC(=O)c1ccc(NP(C)(=O)Oc2ccccc2)cc1 (stereo not drawn) | inactive: -8.29% |
| Cc1cc(C)cc(OP(C)(N)=O)c1 (stereo not drawn) | inactive: -14.2% |
| COc1ccc(OP(C)(=O)Nc2cccc(F)c2)cc1 (stereo not drawn) | inactive: -0.5% |
| COc1ccccc1OP(C)(=O)Nc1cc(Cl)ccc1C (stereo not drawn) | inactive: 4.4% |
| CCN(CC)CCCOC(=O)C(O)(c1ccccc1)c1ccccc1 | inactive: 4.47% |
